The record followed here is ChEMBL document CHEMBL3856290, “Discovery of TAK-272: A Novel, Potent, and Orally Active Renin Inhibitor” (ACS Med Chem Lett, 2016).

Sequences of proteins named here, by UniProt entry; tags and fusion partners are left off. A change or cut given only in a name is not applied to a line headed by its entry.
UniProt P00797: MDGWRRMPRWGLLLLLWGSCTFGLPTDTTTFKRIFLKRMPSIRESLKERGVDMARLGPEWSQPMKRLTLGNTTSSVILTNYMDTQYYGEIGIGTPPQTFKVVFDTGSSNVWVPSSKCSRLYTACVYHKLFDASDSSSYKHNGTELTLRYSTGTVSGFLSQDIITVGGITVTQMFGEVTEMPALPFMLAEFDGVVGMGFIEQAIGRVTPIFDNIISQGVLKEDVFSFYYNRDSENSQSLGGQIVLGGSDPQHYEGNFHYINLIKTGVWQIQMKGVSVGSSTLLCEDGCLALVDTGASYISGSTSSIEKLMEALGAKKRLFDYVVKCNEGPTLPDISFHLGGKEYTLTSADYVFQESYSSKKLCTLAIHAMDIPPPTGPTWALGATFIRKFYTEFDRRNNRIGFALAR

A word on the IC50: it is the concentration that inhibits the measured activity by half. A lower IC50 goes with greater potency.

Structures can show the parent of a compound that is named as a salt.

This experiment addresses Renin (Homo sapiens, UniProt P00797). As to the kind of experiment: Inhibition of renin in human plasma by radioimmunoassay. Type of experiment: cell-free.

On to `COCCCCn1c(C(=O)N(CC(C)C)[C@@H]2CNC[C@H](C(=O)N3CCOCC3)C2)nc2ccccc21` [IMARIKIREN HYDROCHLORIDE], for which 2.1 nM corresponded to half-maximal inhibition (IC50).
